Here are results for two molecules from patent US8710085B2, “Pyrrolidine-1,2-dicarboxamide derivatives” (Novartis AG, priority 2008, dated 2014).

The chains behind the UniProt entries cited, without tags or fusion partners. A line that says so, or that is headed by a name, gives the form on record, which may keep a tag or linker.
UniProt P42336, with tags, fused parts or gaps: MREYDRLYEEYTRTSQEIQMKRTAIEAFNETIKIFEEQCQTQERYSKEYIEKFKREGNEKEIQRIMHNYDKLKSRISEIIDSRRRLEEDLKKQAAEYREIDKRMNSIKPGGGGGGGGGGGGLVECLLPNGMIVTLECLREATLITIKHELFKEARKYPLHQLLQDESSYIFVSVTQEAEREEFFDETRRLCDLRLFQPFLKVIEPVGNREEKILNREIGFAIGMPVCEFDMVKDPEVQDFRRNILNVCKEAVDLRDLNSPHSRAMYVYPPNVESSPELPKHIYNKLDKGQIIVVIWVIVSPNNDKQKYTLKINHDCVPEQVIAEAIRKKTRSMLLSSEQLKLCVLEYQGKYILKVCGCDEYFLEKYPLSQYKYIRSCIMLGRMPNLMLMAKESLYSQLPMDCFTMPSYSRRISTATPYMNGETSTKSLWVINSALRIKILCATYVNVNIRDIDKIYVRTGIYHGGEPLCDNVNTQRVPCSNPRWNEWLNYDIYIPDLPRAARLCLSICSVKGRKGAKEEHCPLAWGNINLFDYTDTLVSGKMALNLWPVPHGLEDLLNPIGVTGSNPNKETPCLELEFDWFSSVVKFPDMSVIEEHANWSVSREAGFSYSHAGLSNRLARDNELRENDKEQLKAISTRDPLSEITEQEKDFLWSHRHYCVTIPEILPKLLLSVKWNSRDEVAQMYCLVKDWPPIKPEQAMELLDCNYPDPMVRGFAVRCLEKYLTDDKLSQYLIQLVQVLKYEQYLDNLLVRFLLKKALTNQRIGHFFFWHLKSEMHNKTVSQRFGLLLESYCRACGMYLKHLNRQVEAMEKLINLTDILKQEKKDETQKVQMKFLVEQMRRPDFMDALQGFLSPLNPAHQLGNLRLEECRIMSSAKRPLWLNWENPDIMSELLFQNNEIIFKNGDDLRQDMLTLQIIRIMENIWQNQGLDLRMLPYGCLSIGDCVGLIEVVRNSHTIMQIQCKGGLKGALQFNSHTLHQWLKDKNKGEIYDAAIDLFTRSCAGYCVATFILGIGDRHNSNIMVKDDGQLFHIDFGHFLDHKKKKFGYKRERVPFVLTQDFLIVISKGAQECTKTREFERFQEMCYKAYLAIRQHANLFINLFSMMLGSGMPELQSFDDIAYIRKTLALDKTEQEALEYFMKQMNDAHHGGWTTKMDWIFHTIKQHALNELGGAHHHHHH

This test addresses T1, PI3Kα (Homo sapiens, UniProt P42336).
T1 construct: p110α(21-1068)-His; made in house; host or cells: baculovirus, Tn5 insect cells
Kind of test: PI3K KinaseGlo assay, PI3Kα. It is filed as biochemical. The note with it: 10 nM enzyme, 1 μM ATP, 30 mins, room temperature.

`Cc1nc(NC(=O)N2CCC[C@H]2C(N)=O)sc1-c1ccnc(C(C)(C)C)c1` [Example 1, (S)-Pyrrolidine-1,2-dicarboxylic acid 2-amide 1-{[5-(2-tert-butyl-pyridin-4-yl)-4-methyl-thiazol-2-yl]-amide}]: the PI3Ka/IC50 came to 0.014 umol I-1.

The molecule `Cc1nc(NC(=O)N2CCC[C@H]2C(N)=O)sc1-c1ccnc(C2(C)CC2)n1` [Example 42, (S)-Pyrrolidine-1,2-dicarboxylic acid 2-amide 1-({4-methyl-5-[2-(1-methylcyclopropyl)-pyrimidin-4-yl]-thiazol-2-yl}-amide)] registered a PI3Ka/IC50 of 0.012 umol I-1.
